In the NIST ThermoML archive (doi:10.1016/j.jct.2016.08.007):
Numbers after ± are expanded uncertainties.

Experiments:
[1] = Crystal; DTA
[2] = Molar enthalpy of transition or fusion; details: Crystal; DSC

With `CC1=NN(c2ccc(C)cc2)C(=O)C1` [2,4-dihydro-5-methyl-2-(4-methylphenyl)-3H-pyrazol-3-one] the Normal melting temperature [1] was 133.50 ± 1.1 °C and the “Molar enthalpy of transition or fusion” value [2] was 6.34 ± 0.232 kcal/mol.
